The data set has as its system O=Cc1ccccc1O. Briefly: purified protein. Particulars: co-substrate NAD+ (0.5 mM in standard assay), 30 °C, pH 9.5.

“VDH (vanillin dehydrogenase) from Streptomyces sp. NL15-2K (Streptomyces sp. NL15-2K; S2A)”: the Km is 566 ± 81.5 µM, the kcat was determined as 14.9 s⁻¹ and the kcat/Km was found to be 26000 M⁻¹ s⁻¹.

By Km is commonly meant the concentration of substrate that gives half-maximal velocity. As a reminder, the kcat is the number of substrate molecules converted per active site and unit of time at saturation. In general, kcat/Km refers to the turnover number divided by the Michaelis constant.

The values are drawn from PMC6201588, “Molecular cloning and characterization of vanillin dehydrogenase from Streptomyces sp. NL15-2K” (BMC Microbiology, 2018).
